According to ChEMBL document CHEMBL5058646 (2022):

Assays:
[1] = target: B-cell lymphoma 6 protein (Homo sapiens, UniProt P41182); settings: OCI-Ly1
[2] = target: T1, Telomere zinc finger-associated protein (Homo sapiens) (UniProt P10074); settings: OCI-Ly1
T1 sequence (whole entry): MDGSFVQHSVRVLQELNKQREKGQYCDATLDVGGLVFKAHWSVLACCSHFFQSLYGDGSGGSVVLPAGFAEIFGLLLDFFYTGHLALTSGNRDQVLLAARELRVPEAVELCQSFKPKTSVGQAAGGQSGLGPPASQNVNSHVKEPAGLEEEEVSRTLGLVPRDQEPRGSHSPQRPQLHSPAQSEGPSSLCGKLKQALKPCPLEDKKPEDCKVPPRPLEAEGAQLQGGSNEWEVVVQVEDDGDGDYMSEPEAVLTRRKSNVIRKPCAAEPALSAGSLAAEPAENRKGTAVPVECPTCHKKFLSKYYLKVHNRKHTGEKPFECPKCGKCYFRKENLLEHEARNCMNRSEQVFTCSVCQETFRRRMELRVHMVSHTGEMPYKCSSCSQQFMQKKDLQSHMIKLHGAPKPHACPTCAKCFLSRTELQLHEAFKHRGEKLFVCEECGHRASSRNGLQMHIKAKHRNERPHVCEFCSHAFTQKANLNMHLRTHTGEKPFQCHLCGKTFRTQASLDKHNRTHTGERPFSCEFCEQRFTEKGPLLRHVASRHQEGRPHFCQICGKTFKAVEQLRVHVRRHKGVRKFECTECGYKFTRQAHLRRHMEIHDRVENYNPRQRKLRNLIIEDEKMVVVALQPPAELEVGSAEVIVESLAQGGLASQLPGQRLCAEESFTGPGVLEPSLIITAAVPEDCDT

[3] = target: T2, Zinc finger and BTB domain-containing protein 14 (Homo sapiens) (UniProt O43829); settings: SUD4
T2 sequence (whole entry): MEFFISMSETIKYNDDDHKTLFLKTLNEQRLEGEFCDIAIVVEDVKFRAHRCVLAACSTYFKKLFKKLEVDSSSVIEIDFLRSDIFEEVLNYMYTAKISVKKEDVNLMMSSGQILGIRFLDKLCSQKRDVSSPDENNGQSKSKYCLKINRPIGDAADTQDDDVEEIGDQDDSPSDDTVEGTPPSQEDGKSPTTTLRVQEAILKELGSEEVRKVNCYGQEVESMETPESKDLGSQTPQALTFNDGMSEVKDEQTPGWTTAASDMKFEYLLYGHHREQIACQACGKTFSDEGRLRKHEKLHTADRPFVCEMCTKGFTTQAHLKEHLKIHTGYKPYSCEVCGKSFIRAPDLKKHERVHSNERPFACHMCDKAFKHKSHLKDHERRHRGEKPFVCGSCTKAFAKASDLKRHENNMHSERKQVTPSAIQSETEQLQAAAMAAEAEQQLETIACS

[4] = target: T2, Zinc finger and BTB domain-containing protein 14 (Homo sapiens); settings: SUD4; remark: listed apart in the source
[5] = target: T3, Zinc finger and BTB domain-containing protein 43 (Homo sapiens) (UniProt O43298); settings: SUD4
T3 sequence (whole entry): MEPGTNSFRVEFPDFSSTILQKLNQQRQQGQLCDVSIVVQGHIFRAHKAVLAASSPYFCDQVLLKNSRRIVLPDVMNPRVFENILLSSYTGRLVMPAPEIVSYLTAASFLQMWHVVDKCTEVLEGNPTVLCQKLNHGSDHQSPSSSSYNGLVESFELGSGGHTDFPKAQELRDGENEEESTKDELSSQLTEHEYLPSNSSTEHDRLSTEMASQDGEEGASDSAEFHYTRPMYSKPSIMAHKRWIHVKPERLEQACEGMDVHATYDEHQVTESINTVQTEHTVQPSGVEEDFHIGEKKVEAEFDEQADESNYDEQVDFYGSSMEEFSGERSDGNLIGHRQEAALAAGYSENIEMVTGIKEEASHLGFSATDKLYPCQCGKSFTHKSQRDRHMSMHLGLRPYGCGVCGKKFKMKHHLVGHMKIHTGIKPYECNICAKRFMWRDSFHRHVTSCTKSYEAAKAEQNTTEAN

[6] = target: T4, Zinc finger and BTB domain-containing protein 10 (Homo sapiens) (UniProt Q96DT7); settings: SUD4
T4 sequence (whole entry): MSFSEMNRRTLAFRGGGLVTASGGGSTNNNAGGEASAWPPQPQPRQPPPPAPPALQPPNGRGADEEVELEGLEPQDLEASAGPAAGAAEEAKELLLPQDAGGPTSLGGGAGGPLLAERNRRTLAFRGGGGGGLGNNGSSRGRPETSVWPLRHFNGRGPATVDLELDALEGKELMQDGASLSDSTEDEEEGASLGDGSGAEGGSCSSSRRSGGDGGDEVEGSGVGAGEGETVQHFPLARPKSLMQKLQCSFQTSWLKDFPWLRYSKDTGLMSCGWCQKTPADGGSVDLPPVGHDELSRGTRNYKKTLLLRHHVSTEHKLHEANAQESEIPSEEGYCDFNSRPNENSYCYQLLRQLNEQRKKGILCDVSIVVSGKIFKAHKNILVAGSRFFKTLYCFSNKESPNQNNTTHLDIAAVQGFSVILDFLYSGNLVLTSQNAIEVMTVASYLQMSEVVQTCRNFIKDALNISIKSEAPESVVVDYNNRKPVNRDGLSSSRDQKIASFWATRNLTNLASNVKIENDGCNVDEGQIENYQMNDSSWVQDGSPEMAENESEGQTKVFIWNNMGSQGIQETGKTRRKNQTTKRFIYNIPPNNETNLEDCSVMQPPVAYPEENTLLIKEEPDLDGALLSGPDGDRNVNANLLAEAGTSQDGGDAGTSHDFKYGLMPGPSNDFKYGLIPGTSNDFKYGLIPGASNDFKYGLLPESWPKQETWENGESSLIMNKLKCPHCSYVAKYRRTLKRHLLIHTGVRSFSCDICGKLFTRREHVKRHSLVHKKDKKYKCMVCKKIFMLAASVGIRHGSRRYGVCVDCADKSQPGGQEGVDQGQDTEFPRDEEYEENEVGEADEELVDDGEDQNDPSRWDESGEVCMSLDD

Compound: C[C@@H]1CN(c2ncc(Cl)c(Nc3ccc4c(c3)n(CCC(C)(C)O)c(=O)n4C)n2)C[C@H](C)C1(F)F
- Normalized abundances for DMSO [1]: 1070
- Normalized abundances for compound [1]: 154
- Normalized abundances for DMSO [2]: 556
- Normalized abundances for compound [2]: 564
- Normalized abundances for DMSO [3]: 354
- Normalized abundances for compound [3]: 362
- Normalized abundances for DMSO [4]: 351
- Normalized abundances for compound [4]: 372
- Normalized abundances for DMSO [5]: 635
- Normalized abundances for compound [5]: 643
- Normalized abundances for DMSO [6]: 3640
- Normalized abundances for compound [6]: 3960
